Article PMC8967716, “Inhibition of calcium-triggered secretion by hydrocarbon-stapled peptides” (Nature, 2022)
Positions of bridges follow the written chain, without caps; N, C: chain ends. Non-standard residues stand in square brackets, D forms with d. Residues, ends and D or L forms follow the SMILES beside them. S5 = C=CCCC[C@](C)(N)C(=O)O

Test: Size exclusion chromatography of peptides
Type: physicochemical
Settings: Superdex 75, buffer V (20 mM HEPES pH 7.4, 90 mM NaCl), 0.2 micrometer filtered
Protocol: Extended Data Fig. 3 Related to Figure 2. Characterization of the oligomeric state of SP9. a, Size exclusion chromatography (SEC) profiles of peptides. […] The dashed line indicates the border of the void volume at ~8 ml. […] Scale bar, 410 μm. c, Representative time traces showing single-molecule stepwise photobleaching events of SP9-Cy3. Black lines correspond to the fluorescence intensity of SP9-Cy3 and red lines correspond to the idealized trajectory obtained by Hidden Markov Model analysis (HMM) (Methods). d, Distribution of multiple SP9-Cy3 molecules in (diffraction limited) fluorescent spots at specified concentrations. Fluorescent spots were automatically selected by smCamera. The number of SP9-Cy3 molecules per fluorescent spot was determined from the observed fluorescence intensity time traces by HMM and verified by manual inspection (Methods). Bar graphs were calculated from 167, 675, 937, and 520 selected traces at concentrations of 0.5, 1, 10, and 100 nM SP9-Cy3, respectively. Source data

CC[C@H](C)[C@H](NC(=O)[C@]1(C)CCCC=CCCC[C@](C)(NC(=O)[C@H](CCC(=O)O)NC(=O)[C@H](CCC(=O)O)NC(C)=O)C(=O)N[C@@H](CCCCN)C(=O)N[C@@H](CC(=O)O)C(=O)N[C@@H](C)C(=O)N1)C(=O)N[C@@H](CCCNC(=N)N)C(=O)N[C@@]1(C)CCCC=CCCC[C@@](C)(C(=O)N[C@@H](CC(=O)O)C(=O)N[C@@H](CCC(=O)O)C(=O)N[C@@H](CCC(N)=O)C(=O)N[C@@H](CS)C(N)=O)NC(=O)[C@H](CCSC)NC(=O)[C@H](C(C)C)NC(=O)[C@H](CC(C)C)NC1=O [SP9] (Ac-EE[S5]KDA[S5]IR[S5]LVM[S5]DEQC-NH2; staple 3-7, 10-14)
aggregation by size-exclusion chromatography: does not aggregate
